Data as given in EP0738149B1, “1-AMINOINDAN DERIVATIVES AND COMPOSITIONS THEREOF” (priority 1994, dated 1995).

System: Male mongolian gerbils
Experiment: Global brain ischemia in gerbils (CA1 pyramidal neurons)
Format: in vivo
Settings: positive control, 40 mg/kg; fraction of hippocampi protected from ischemia

Compound: CCCC(C)C1(CC)C(=O)NC(=O)NC1=O (stereo not shown) [Pentobarbitone, sodium pentobarbital, reference compound]
- PERCENT PROTECTION: 87.5%
